Assay results published in patent US8686153B2, “Lenalidomide salts” (Synthon B.V., priority 2009, dated 2014).

Experiment: Solubility in water, shaken flask method

Row | Substance | solubility in water at 20° C.
1 | Lenalidomide P-Toluene Sulfonate | about 13 mg/ml
2 | Lenalidomide Benzene Sulfonate | about 18 mg/ml
